In ChEMBL document CHEMBL1141625, “Potent, selective MCH-1 receptor antagonists” (Bioorg Med Chem Lett, 2008) one finds inhibition and Activity data, which are given here for eight compounds.

Chains of the proteins cited; added tags and fusions are not shown. Lines headed by an entry give the natural chain unless they say otherwise; changes in a name come on top.
UniProt P35462, whole entry, looked up: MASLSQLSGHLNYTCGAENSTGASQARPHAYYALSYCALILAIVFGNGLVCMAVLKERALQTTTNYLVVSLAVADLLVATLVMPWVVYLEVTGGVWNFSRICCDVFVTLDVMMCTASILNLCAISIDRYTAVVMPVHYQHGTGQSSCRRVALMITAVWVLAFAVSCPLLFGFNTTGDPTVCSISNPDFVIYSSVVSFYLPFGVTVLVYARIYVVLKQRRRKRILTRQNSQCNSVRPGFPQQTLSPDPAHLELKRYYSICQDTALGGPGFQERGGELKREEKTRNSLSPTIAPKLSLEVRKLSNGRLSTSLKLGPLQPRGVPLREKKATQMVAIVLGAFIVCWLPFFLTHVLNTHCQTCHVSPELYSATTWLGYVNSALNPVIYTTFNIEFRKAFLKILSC
UniProt P35372, whole entry, looked up: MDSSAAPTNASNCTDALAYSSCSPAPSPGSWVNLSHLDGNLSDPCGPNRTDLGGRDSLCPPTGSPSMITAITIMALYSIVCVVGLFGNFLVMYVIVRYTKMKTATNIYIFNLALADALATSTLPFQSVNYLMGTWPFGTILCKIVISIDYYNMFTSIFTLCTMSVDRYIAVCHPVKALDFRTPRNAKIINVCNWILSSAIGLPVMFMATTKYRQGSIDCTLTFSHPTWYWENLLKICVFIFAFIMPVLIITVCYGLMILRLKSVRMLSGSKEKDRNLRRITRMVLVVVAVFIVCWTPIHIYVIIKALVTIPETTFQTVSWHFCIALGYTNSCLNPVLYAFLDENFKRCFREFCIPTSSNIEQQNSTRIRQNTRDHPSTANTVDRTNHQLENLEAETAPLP
UniProt P41145: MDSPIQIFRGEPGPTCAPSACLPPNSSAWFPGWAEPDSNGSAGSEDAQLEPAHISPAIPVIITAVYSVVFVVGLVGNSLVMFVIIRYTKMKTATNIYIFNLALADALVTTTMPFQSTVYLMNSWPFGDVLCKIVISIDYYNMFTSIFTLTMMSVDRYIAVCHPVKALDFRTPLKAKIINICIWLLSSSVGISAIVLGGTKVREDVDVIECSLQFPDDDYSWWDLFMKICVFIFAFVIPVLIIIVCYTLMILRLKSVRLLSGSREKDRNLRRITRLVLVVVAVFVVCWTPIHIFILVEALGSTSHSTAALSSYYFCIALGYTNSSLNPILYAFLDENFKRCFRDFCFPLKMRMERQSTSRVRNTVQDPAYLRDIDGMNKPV
UniProt P41143, whole entry, looked up: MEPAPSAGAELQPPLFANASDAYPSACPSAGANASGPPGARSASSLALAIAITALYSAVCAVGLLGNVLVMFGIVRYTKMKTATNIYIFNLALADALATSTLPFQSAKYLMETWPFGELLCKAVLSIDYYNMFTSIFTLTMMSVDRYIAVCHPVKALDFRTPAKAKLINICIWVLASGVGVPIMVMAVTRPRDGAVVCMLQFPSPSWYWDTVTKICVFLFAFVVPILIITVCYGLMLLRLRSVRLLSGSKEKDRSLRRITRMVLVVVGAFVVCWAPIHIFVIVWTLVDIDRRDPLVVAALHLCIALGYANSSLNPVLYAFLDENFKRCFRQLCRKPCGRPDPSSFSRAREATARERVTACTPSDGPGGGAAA

The target in test [1] is D(3) dopamine receptor (Homo sapiens) (UniProt P35462). Briefly: Inhibition of dopamine D3 receptor at 10 uM.
Test [2] addresses Mu-type opioid receptor (Homo sapiens) (UniProt P35372). Briefly: Inhibition of mu opioid receptor at 10 uM.
Test [3] addresses Kappa-type opioid receptor (Homo sapiens) (UniProt P41145). Kind of test: Inhibition of kappa opioid receptor at 10 uM.
Test [4] has as its target Delta-type opioid receptor (Homo sapiens) (UniProt P41143). Briefly: Inhibition of delta opioid receptor at 10 uM.
Test [5] has as its target Mu-type opioid receptor (Homo sapiens) (UniProt P35372). Briefly: Agonist activity at mu opioid receptor.

In general, inhibition refers to the relative decrease from the control value, in per cent. Read a high inhibition as strong suppression.

Regarding `CO[C@@H]1CN(C[C@@H]2Cc3ccc(NC(=O)C(C)C)cc3C2)CC[C@H]1n1c(C)nc2cc(C)ccc21`, the inhibition in test [1] was 13%; in test [2] it was 45%; in test [3] it was 13%.

In the case of `CO[C@@H]1CN(CC2Cc3ccccc3C2)CC[C@H]1n1c(C)nc2cc(C)ccc21`, the inhibition in test [2] was 76%; in test [3], 76%; in test [4], 15%.

`CO[C@@H]1CN(C[C@H]2Cc3ccc(Br)cc3C2)CC[C@H]1n1c(C(C)(C)O)nc2cc(C)ccc21` registered an Activity in test [5] of 57%. Moreover, the inhibition in test [2] worked out at 94%; in test [3], 61%; in test [4], 42%.

As for `CO[C@@H]1CN(C[C@H]2Cc3ccc(C#N)cc3C2)CC[C@H]1n1c(C(C)(C)O)nc2cc(C)ccc21`, the inhibition stood at 67% in test [2], 32% in test [3] and 30% in test [4].

For the compound `COC(=O)Nc1ccc2c(c1)C[C@@H](CN1CC[C@@H](n3c(C)nc4cc(C)ccc43)[C@H](OC)C1)C2`, the figures for the inhibition in test [2] and in test [3] were 85% and 55%, respectively.

In the case of `Cc1ccc2c(c1)nc(C)n2C1CCN(CCCc2cccc(NC(=O)C(C)C)c2)CC1`, the inhibition turned out to be 46% in test [1], 97% in test [2] and 46% in test [3].

`CO[C@H]1CN(CCCc2cccc(NC(=O)C3CC3)c2)CC[C@@H]1n1c(C)nc2cc(C)ccc21`: the values for the inhibition in test [2] and in test [3] were 74% and 38%, respectively.

Consider `CO[C@@H]1CN(C[C@H]2Cc3ccc(Br)cc3C2)CC[C@H]1n1c(C)nc2cc(C)ccc21`, for which the values for the inhibition in test [2], in test [3] and in test [4] were 91%, 91% and 47%, respectively.
